Assay results reported in patent US12533439B2, “Antibacterial wound treatments with clot-promoting properties” (University of Georgia Research Foundation, Inc., priority 2019, dated 2026).

Test system: 3T3 mouse fibroblast cells
Test: WST-8 (CCK-8) cell viability assay on dressing leachates
Type: cell-based
Settings: 24-hour leachate

## NC[C@H]1CC[C@H](C(=O)O)CC1 [TXA, tranexamic acid]
  cytotoxicity (relative cell viability): non-cytotoxic
